Measurements reported in patent US4191688A, “Amides of leurosine, leuroformine, desacetylleurosine and desacetylleuroformine” (Eli Lilly and Company, priority 1978, dated 1980).

Test system: P388 leukemia
Assay: Activity against P388 leukemia in mice
Assay type: in vivo
Conditions: 15 and 30 mg/kg level on three occasions, 3 days apart
Method: Bis[β-(4-desacetylleurosine C-3 carboxamide)ethyl]disulfide disulfate was active against the P388 leukemia in mice, when administered at the 15 and 30 mg/kg level on three occasions, 3 days apart. 55 and 46 percent prolongation of survival time respectively were observed.

## CCC12CN3CCc4c([nH]c5ccccc45)C(C(=O)OC)(c4cc5c(cc4OC)N(C)C4C(O)(C(=O)NCCSSCCNC(=O)C6(O)C(O)C7(CC)C=CCN8CCC9(c%10cc(C%11(C(=O)OC)CC%12CN(CCc%13c%11[nH]c%11ccccc%13%11)CC%11(CC)OC%12%11)c(OC)cc%10N(C)C69)C87)C(O)C6(CC)C=CCN7CCC54C76)CC(C3)C1O2 (stereo not drawn) [Bis[β-(4-desacetylleurosine C-3 carboxamide)ethyl]disulfide disulfate]
  activity against P388 leukemia: active
